Data from PubChem BioAssay (NCI).
Some tests of the compounds listed are not included; inactive here does not mean inactive elsewhere.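 Cells were grown in 96-well plates and exposed to each compound for 48 hours at five concentrations; endpoints were interpolated linearly between bracketing concentrations, or set to the highest concentration if not reached. GI50 is the concentration that inhibits growth by half. At the TGI there is no net growth.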

Experiments:
Assay in all cases: NCI anticancer screen, dose series, 48 h
[1] = test system: HS 578T breast
[2] = test system: SF-268 CNS
[3] = test system: HOP-92 NSCLC
[4] = test system: NCI-H522 lung
[5] = test system: DU-145 prostate
[6] = test system: UACC-257 melanoma
[7] = test system: 786-0 renal
[8] = test system: UACC-62 melanoma
[9] = test system: SNB-75 CNS
[10] = test system: HCT-15 colon
[11] = test system: NCI-H23 lung
[12] = test system: MDA-MB-231 breast
[13] = test system: NCI-H322M lung
[14] = test system: SR leukemia
[15] = test system: CCRF-CEM leukemia
[16] = test system: SF-295 CNS
[17] = test system: TK-10 renal
[18] = test system: SK-MEL-28 melanoma
[19] = test system: COLO 205 colon
[20] = test system: T-47D breast
[21] = test system: EKVX NSCLC
[22] = test system: SK-MEL-2 melanoma
[23] = test system: LOX IMVI melanoma
[24] = test system: U251 CNS
[25] = test system: HOP-62 NSCLC
[26] = test system: RPMI-8226 leukemia
[27] = test system: SF-539 CNS
[28] = test system: HT29 colon
[29] = test system: MDA-MB-435
[30] = test system: CAKI-1 renal
[31] = test system: IGROV1 ovarian
[32] = test system: SN12C renal
[33] = test system: SK-MEL-5 melanoma
[34] = test system: PC-3 prostate
[35] = test system: SNB-19 CNS
[36] = test system: K-562 leukemia
[37] = test system: A549 NSCLC
[38] = test system: OVCAR-5 ovarian
[39] = test system: NCI/ADR-RES ovarian
[40] = test system: HL-60(TB) leukemia
[41] = test system: MOLT-4 leukemia
[42] = test system: OVCAR-8 ovarian
[43] = test system: RXF 393 renal
[44] = test system: MALME-3M melanoma
[45] = test system: OVCAR-4 ovarian
[46] = test system: ACHN renal
[47] = test system: HCT-116 colon
[48] = test system: OVCAR-3 ovarian
[49] = test system: SW-620 colon
[50] = test system: NCI-H460 lung
[51] = test system: KM12 colon
[52] = test system: HCC-2998 colon
[53] = test system: A498 renal
[54] = test system: MCF7 breast
[55] = test system: NCI-H226 lung
[56] = test system: MDA-N
[57] = test system: M14 melanoma

**Q.** Which results are given for `CC/C=C\C(O)(C(=O)OC1CN2CCC1CC2)C1CCCC1` (centres undefined)?
**A.** GI50 [1]: > 100 µM; TGI [1]: > 100 µM; GI50 [2]: > 100 µM; TGI [2]: > 100 µM; GI50 [3]: 68.8 µM; TGI [3]: > 100 µM; GI50 [4]: > 100 µM; TGI [4]: > 100 µM; GI50 [5]: > 100 µM; TGI [5]: > 100 µM; GI50 [6]: > 100 µM; TGI [6]: > 100 µM; GI50 [7]: > 100 µM; TGI [7]: > 100 µM; GI50 [8]: > 100 µM; TGI [8]: > 100 µM; GI50 [9]: 72.4 µM; TGI [9]: > 100 µM; GI50 [10]: > 100 µM; TGI [10]: > 100 µM; GI50 [11]: > 100 µM; TGI [11]: > 100 µM; GI50 [12]: > 100 µM; TGI [12]: > 100 µM; GI50 [13]: > 100 µM; TGI [13]: > 100 µM; GI50 [14]: > 100 µM; TGI [14]: > 100 µM; GI50 [15]: > 100 µM; TGI [15]: > 100 µM; GI50 [16]: > 100 µM; TGI [16]: > 100 µM; GI50 [17]: > 100 µM; TGI [17]: > 100 µM; GI50 [18]: > 100 µM; TGI [18]: > 100 µM; GI50 [19]: > 100 µM; TGI [19]: > 100 µM; GI50 [20]: > 100 µM; TGI [20]: > 100 µM; GI50 [21]: > 100 µM; TGI [21]: > 100 µM; GI50 [22]: > 100 µM; TGI [22]: > 100 µM; GI50 [23]: > 100 µM; TGI [23]: > 100 µM; GI50 [24]: > 100 µM; TGI [24]: > 100 µM; GI50 [25]: > 100 µM; TGI [25]: > 100 µM; GI50 [26]: > 100 µM; TGI [26]: > 100 µM; GI50 [27]: > 100 µM; TGI [27]: > 100 µM; GI50 [28]: > 100 µM; TGI [28]: > 100 µM; GI50 [29]: > 100 µM; TGI [29]: > 100 µM; GI50 [30]: > 100 µM; TGI [30]: > 100 µM; GI50 [31]: > 100 µM; TGI [31]: > 100 µM; GI50 [32]: > 100 µM; TGI [32]: > 100 µM; GI50 [33]: > 100 µM; TGI [33]: > 100 µM; GI50 [34]: > 100 µM; TGI [34]: > 100 µM; GI50 [35]: > 100 µM; TGI [35]: > 100 µM; GI50 [36]: > 100 µM; TGI [36]: > 100 µM; GI50 [37]: > 100 µM; TGI [37]: > 100 µM; GI50 [38]: > 100 µM; TGI [38]: > 100 µM; GI50 [39]: > 100 µM; TGI [39]: > 100 µM; GI50 [40]: > 100 µM; TGI [40]: > 100 µM; GI50 [41]: > 100 µM; TGI [41]: > 100 µM; GI50 [42]: > 100 µM; TGI [42]: > 100 µM; GI50 [43]: > 100 µM; TGI [43]: > 100 µM; GI50 [44]: > 100 µM; TGI [44]: > 100 µM; GI50 [45]: > 100 µM; TGI [45]: > 100 µM; GI50 [46]: > 100 µM; TGI [46]: > 100 µM; GI50 [47]: > 100 µM; TGI [47]: > 100 µM; GI50 [48]: > 100 µM; TGI [48]: > 100 µM; GI50 [49]: > 100 µM; TGI [49]: > 100 µM; GI50 [50]: > 100 µM; TGI [50]: > 100 µM; GI50 [51]: > 100 µM; TGI [51]: > 100 µM; GI50 [52]: > 100 µM; TGI [52]: > 100 µM; GI50 [53]: > 100 µM; TGI [53]: > 100 µM; GI50 [54]: > 100 µM; TGI [54]: > 100 µM; GI50 [55]: 48.2 µM; TGI [55]: > 100 µM; GI50 [56]: > 100 µM; TGI [56]: > 100 µM; GI50 [57]: > 100 µM; TGI [57]: > 100 µM
